US6960559B1, “Neurite growth regulatory factors” (University of Zurich, priority 1988, dated 2005)

System: C6 glioblastoma cells
Type: cell-based, rat
Settings: 2 h
Method: Rat C6 glioblastoma cells (Benda et al., 1968, Science 161:370-371) were cultured in Dulbecco's modified Eagle's medium (DMEM) supplemented with 10% fetal calf serum (FCS), usually to maximally 70-80% confluency (Paganetti et al., 1988, J. Cell Biol. 107:2281-2291). All cell culture media were routinely supplemented with penicillin and streptomycin. Cells were harvested by a short trypsin treatment (0.1% in Ca^2+/Mg^2+-free [CMF] PBS/EDTA solution for 90 seconds) followed by addition of DMEM/10% FCS and centrifugation (600×g, 6 min). The cell pellet was rinsed with 5 ml DMEM/10% FCS and centrifuged. For cell spreading assays, cells were resuspended at 10^6/ml in defined serum-free medium (MEMα) supplemented with 0.2 μg/ml insulin, 0.5 μg/ml transferrin and 0.12 μg/ml bovine serum albumin (BSA). Protease blockers or peptides were added directly to the cell suspension from 10×solutions 10 min before plating.
Spinal cord myelin from young adult Lewis rats was purified on a discontinuous sucrose gradient (Colman et al., 1982, J. Cell Biol. 95:598-608; Schwab and Caroni, 1988, J. Neurosci. 8:2381-2393) and stored in 100 mM sucrose, 25 mM TRIS/HCl pH 7.4 at −80° C. up to 6 months. The myelin suspension ([…]) was incubated for 30 min on poly-D-lysine-coated wells (PLYS-wells). […] Experiments were scored as described (Paganetti et al., 1988, J. Cell Biol. 107:2281-2291).

IC50: 1000 µM
SMILES: C[C@H](N)C(=O)N[C@@H](Cc1ccccc1)C(=O)N[C@@H](Cc1ccc(O)cc1)C(N)=O [AFY-NH2]
